Test results as given in patent publication US20060263427A1, “Quinine formulations” (priority 2005, published 2006).

Conditions: Study 2, C: 324 mg capsule, fasting; 0 hours

C=C[C@H]1C[N@@]2CC[C@H]1C[C@H]2[C@H](O)c1ccnc2ccc(OC)cc12 [Quinine Sulfate, cinchonan-9-ol, 6′-methoxy-, (8α,9R)-, sulfate (2:1)]
QTc: 404 ms

Counter-ions that a name gives are not always drawn.
